The numbers were not newly measured in patent US9796687B2, “S-substituted quinazolines and their therapeutic applications for the treatment of diseases mediated by PDE7” (Consejo Superior De Investigaciones Cientificas (CSIC), priority 2016, dated 2017), which cites them from elsewhere.

By UniProt entry, the sequences of proteins in these tests, tags left out. Where a name states a change or a piece, a line headed by the entry shows the natural chain unless it says otherwise.
UniProt Q12809: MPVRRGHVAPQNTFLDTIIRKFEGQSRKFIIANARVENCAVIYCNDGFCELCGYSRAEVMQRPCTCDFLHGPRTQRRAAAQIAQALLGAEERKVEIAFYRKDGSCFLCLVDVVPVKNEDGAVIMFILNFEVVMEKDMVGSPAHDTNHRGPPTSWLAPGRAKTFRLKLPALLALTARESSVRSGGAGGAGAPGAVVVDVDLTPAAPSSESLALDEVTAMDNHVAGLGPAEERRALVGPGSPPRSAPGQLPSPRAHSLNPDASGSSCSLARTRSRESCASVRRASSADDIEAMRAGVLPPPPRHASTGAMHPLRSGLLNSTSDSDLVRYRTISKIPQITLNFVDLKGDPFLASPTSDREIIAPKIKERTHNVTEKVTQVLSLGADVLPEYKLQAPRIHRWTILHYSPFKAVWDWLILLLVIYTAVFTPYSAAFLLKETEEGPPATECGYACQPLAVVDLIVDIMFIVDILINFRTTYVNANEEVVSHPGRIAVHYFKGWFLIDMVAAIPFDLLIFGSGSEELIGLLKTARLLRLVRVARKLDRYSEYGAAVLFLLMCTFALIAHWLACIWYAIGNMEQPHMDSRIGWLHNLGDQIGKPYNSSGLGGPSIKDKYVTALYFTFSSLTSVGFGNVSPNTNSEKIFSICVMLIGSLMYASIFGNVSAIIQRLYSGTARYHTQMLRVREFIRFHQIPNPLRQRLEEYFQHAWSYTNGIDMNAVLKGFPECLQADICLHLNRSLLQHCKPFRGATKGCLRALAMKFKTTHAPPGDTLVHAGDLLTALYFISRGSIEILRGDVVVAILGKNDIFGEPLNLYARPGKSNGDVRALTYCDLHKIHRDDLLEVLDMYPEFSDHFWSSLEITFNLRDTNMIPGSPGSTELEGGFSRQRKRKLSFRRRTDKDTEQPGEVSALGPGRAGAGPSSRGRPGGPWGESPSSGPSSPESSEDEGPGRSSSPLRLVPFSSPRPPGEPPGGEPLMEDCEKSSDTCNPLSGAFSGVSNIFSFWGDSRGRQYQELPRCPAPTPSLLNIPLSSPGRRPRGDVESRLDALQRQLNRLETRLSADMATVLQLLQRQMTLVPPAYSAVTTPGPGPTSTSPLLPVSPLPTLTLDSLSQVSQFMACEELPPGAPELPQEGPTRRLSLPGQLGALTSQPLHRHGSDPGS

pIC50: −log10 of the molar value.

Broadly, the pIC50 is the IC50 on a negative log10 scale, so that one unit is a factor of ten.

The data set deals with hERG channel (Homo sapiens (Human), UniProt Q12809). The settings on record: read-out: hERG IC50 of positive controls; cited from earlier work. For orientation: Block of hERG is tested as a sign of cardiac risk.

On to `CC(C)COCC(CN(Cc1ccccc1)c1ccccc1)N1CCCC1` (stereo not shown) [bepridil], for which the negative-log IC50 (pIC50) was 5.85.
